Measurements: doi:10.1101/2022.07.21.500659v1 (bioRxiv, 2022)

Target: T1, human GLP-2r (Homo sapiens, UniProt O95838)
T1 sequence (O95838 1-553): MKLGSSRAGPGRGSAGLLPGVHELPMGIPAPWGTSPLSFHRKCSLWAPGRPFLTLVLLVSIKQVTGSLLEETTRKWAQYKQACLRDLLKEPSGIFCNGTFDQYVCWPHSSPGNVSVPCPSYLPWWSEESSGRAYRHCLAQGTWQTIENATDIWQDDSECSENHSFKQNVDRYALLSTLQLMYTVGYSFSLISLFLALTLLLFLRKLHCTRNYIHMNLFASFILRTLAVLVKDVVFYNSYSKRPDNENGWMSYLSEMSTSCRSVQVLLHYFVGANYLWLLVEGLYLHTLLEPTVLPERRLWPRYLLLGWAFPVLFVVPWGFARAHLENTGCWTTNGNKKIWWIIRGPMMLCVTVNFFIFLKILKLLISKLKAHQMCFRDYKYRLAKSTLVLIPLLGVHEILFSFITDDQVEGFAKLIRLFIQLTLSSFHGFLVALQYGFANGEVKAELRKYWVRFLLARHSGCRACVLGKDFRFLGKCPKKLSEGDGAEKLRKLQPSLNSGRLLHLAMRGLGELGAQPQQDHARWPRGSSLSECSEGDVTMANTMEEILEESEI
Test: Receptor activation, cAMP FRET biosensor
Type: cell-based
Details: FRET ratio of analogue divided by FRET ratio of endogenous ligand

- Human GLP-2r FRET ratio fold change vs. GLP-2: 0.63
SMILES: CC[C@H](C)[C@H](NC(=O)[C@H](CO)NC(=O)[C@H](Cc1ccc(O)cc1)NC(=O)[C@H](CC(=O)O)NC(=O)[C@H](CO)NC(=O)[C@@H](NC(=O)[C@H](Cc1ccccc1)NC(=O)[C@@H](NC(=O)CNC(=O)[C@H](CCC(=O)O)NC(=O)[C@H](C)NC(=O)[C@@H](N)Cc1ccc(O)cc1)[C@@H](C)O)[C@@H](C)CC)C(=O)N[C@@H](C)C(=O)N[C@@H](CCSC)C(=O)N[C@@H](CC(=O)O)C(=O)N[C@@H](CCCCN)C(=O)N[C@H](C(=O)N[C@@H](Cc1c[nH]cn1)C(=O)N[C@@H](CCC(N)=O)C(=O)N[C@@H](CCC(N)=O)C(=O)N[C@@H](CC(=O)O)C(=O)N[C@@H](Cc1ccccc1)C(=O)N[C@H](C(=O)N[C@@H](CC(N)=O)C(=O)N[C@@H](Cc1c[nH]c2ccccc12)C(=O)N[C@@H](CC(C)C)C(=O)N[C@@H](CC(C)C)C(=O)N[C@@H](C)C(=O)N[C@@H](CCC(N)=O)C(=O)N[C@@H](CCCCN)C(=O)O)C(C)C)[C@@H](C)CC [GIP1-30]
